Results taken from patent publication US8440788B2, “N-terminal VDAC variants and uses thereof” (Ben-Gurion University of The Negev Research and Development …, priority 2006, dated 2013).

Experiments:
[1] = tested on: hVDAC1-shRNA-T-REx-293 cells; assay: Restoration of cell growth in T-REx-293 cells silenced for hVDAC1; format: cell-based, human; settings: expression under tetracycline control; Trypan-Blue counting
Text: (§1) T-REx-293 cells correspond to a transformed primary human embryonal kidney cell line, expressing the tetracycline repressor. hVDAC1-shRNA T-REx-293 cells stably expressing the pSUPERretro plasmid encoding shRNA targeting hVDAC1 were obtained and grown as described previously (Abu-Hamad et al. (2006), supra). The expression of hVDAC 1 in these cells is suppressed by 70-96% due to a gene silencing. hVDAC1-shRNA T-REx-293 cells expressing mVDAC1 or Δ(1-26)mVDAC1 were obtained by transfecting hVDAC1-shRNA-T-REx-293 cells with plasmid mVDAC1- or Δ(1-26)mVDAC1-pcDNA4/TO. Cells were grown with 200 μg/ml zeocin, 0.5 μg/ml puromycin and 5 μg/ml blasticidine, with mVDAC1 or Δ(1-26)mVDAC1 expression under tetracycline control. Cell viability was analyzed by staining with acridine orange and ethidium bromide in PBS (Zaid et al. (2005). Cell death and differentiation, 12, 751-760). Images were recorded using Zeiss LSM510 confocal or Olympus IX51 fluorescence microscopes. Mitochondria preparation and measurements of ATP levels and Ca^+ accumulation were carried out as previously described (Abu-Hamad et al. (2006), supra).
VDAC protein provides the major pathway for nucleotides, Ca^2+ and other metabolites moving across the outer mitochondrial membrane (OMM). […]

[2] = tested on: T-REx-293 cells silenced for hVDAC1 expression; assay: Cell death triggered by tetracycline-induced over-expression; format: cell-based, human; settings: over-expression induced by 2.5 μg/ml tetracycline
Method: (§2) Apoptotic cell death was analyzed by Acridine Orange/Ethidium Bromide staining.
as §1
Native and truncated mVDAC1 expression was induced by low (1.0 μg/ml) or high (2.5 μg/ml) tetracycline (Tet) in T-REx-293 cells silenced for hVDAC1 expression.

HK-I = biological target: T1, HK-I (Rattus norvegicus, UniProt P05708); assay: Effect of HK-I on channel activity of bilayer-reconstituted VDAC1; format: biochemical; settings: HK-I (28 mU/ml), voltage step 0 to +40 mV
T1 construct: Purified rat brain HK-I; from tissue; host or cells: rat brain
T1 sequence (P05708 1-918): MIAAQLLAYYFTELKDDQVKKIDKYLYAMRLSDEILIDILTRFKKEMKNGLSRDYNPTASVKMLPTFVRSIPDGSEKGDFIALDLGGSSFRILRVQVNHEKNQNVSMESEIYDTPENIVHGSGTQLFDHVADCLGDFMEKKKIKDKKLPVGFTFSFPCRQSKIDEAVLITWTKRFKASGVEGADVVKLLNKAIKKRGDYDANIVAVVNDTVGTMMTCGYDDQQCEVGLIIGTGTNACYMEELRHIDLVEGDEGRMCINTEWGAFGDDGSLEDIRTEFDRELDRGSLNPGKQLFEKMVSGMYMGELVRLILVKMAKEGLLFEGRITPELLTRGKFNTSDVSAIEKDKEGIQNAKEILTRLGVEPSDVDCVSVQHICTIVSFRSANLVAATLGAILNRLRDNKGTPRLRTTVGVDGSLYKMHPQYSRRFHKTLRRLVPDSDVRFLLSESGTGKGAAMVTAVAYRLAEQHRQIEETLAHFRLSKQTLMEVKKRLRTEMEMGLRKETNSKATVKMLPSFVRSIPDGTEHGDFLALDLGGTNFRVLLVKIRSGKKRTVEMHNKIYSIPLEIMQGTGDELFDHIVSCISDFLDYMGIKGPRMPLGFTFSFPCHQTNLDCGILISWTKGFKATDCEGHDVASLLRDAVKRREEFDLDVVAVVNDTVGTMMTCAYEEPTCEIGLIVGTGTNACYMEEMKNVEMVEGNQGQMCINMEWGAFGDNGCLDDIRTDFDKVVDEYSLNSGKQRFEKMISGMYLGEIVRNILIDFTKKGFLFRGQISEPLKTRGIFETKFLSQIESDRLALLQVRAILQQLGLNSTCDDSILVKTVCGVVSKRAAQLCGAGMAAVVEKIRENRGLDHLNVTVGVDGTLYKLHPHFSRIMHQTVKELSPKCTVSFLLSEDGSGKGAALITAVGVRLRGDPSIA
Method: (§3) Reconstitution of purified native or Δ(1-26)mVDAC1 into planar lipid bilayers (PLB), channel recording and analysis were carried out as previously described (Gincel et al. (2001). Biochem J 358 (Pt 1), 147-155). Briefly, PLB were prepared from soybean asolectin dissolved in n-decane (50 mg/ml) in a chamber containing 10 mM Hepes/KOH, pH 7.4 and 0.5 or 1M NaCl (cis/trans). Only PLBs with a resistance greater than 100 GΩ were used. Purified VDAC (about 1 ng) was added to the chamber defined as the cis side. After insertion of one or more channels into the PLB, excess protein was removed by perfusion of the cis chamber with 20 volumes of a same solution. Currents were recorded under voltage-clamp mode using a Bilayer Clamp amplifier (Warner Instruments, Hamden, Conn.). Currents were measured with respect to the trans side of the membrane (ground). The currents were low-pass filtered at 1 kHz, using a Bessal filter (Frequency Devices, Haverhill, Mass.) and digitized on-line using a Digidata 1200 interface board and pCLAMP 6 software (Axon Instruments). Sigma Plot 2000 scientific software was used for data analyses. Experiments were performed at 23-25° C.
Native and Δ(1-26)mVDAC1 were expressed in porin-less yeast, purified and reconstituted into planar lipid bilayers. […]

[3] = Channel conductance of purified VDAC reconstituted into planar lipid bilayer; format: biochemical
Method: as §3

[4] = tested on: hVDAC1-shRNA T-REx-293 cells; assay: Cytochrome c release induced by staurosporine (STS); format: cell-based, human; settings: STS (1.25 μM) for 5 h; Western blotting
Method: hVDAC1-shRNA T-REx-293 cells stably expressing native or Δ(1-26)mVDAC1 were grown on 60 mm plates. Native or truncated mVDAC1 expression was triggered by tetracycline (1 μg/ml). Seventy-two hours later, cells were exposed to STS (1.25 μM) for 5 h. Cells were harvested, washed twice with PBS, incubated on ice for 1 h in extraction buffer (200 mM manitol, 70 mM sucrose, 1 mM EGTA, 1 mM EDTA, 10 μg/ml leupeptine, 1 mM PMSF, 1 mg/ml BSA, 10 mM HEPES, pH 7.5) and then lysed with a Dounce homogenizer by 25 strokes. Homogenates were centrifuged (1000×g) at 4° C. for 10 min and the supernatants were re-centrifuged at 15,000×g for 30 min at 4° C. Aliquots (10 μl) of the resultant supernatants, designated as the cytosolic fraction, were immediately boiled in SDS-PAGE sample buffer and resolved by SDS-PAGE on Tris-Tricine gels (13% polyacrylamide) and immunoblotted using monoclonal anti-cytochrome c antibodies. To rule out mitochondrial contamination of the cytosolic fraction, the presence of VDAC was tested by immunoblotting. Although supernatants from the different treated cultures were derived from equal number of cells, protein concentration in the total cells lysates were estimated as well as, actin levels were analyzed by immunoblotting using anti-actin antibodies.

[5] = tested on: hVDAC1-shRNA-T-REx-293 cells; assay: Apoptosis induced by various stimuli in cells expressing native or truncated mVDAC1; format: cell-based, human; settings: curcumin (100 μM), As2O3 (60 μM) or STS (1.25 μM)
Method: as §2
T-REx-293 cells correspond to a transformed primary human embryonal kidney cell line, expressing the tetracycline repressor. hVDAC1-shRNA T-REx-293 cells stably expressing the pSUPERretro plasmid encoding shRNA targeting hVDAC1 were obtained and grown as described previously (Abu-Hamad et al. (2006), supra). The expression of hVDAC 1 in these cells is suppressed by 70-96% due to a gene silencing. hVDAC1-shRNA T-REx-293 cells expressing mVDAC1 or Δ(1-26)mVDAC1 were obtained by transfecting hVDAC1-shRNA-T-REx-293 cells with plasmid mVDAC1- or Δ(1-26)mVDAC1-pcDNA4/TO. Cells were grown with 200 μg/ml zeocin, 0.5 μg/ml puromycin and 5 μg/ml blasticidine, with mVDAC1 or Δ(1-26)mVDAC1 expression under tetracycline control. Cell viability was analyzed by staining with acridine orange and ethidium bromide in PBS (Zaid et al. (2005). Cell death and differentiation, 12, 751-760). Images were recorded using Zeiss LSM510 confocal or Olympus IX51 fluorescence microscopes. Mitochondria preparation and measurements of ATP levels and Ca^+ accumulation were carried out as previously described (Abu-Hamad et al. (2006), supra). […]

B1: mVDAC1: native mouse VDAC1 protein (NP_035824) (protein, listed as Mus musculus)
chain: MAVPPTYADLGKSARDVFTKGYGFGLIKLDLKTKSENGLEFTSSGSANTETTKVNGSLETKYRWTEYGLTFTEKWNTDNTLGTEITVEDQLARGLKLTFDSSFSPNTGKKNAKIKTGYKREHINLGCDVDFDIAGPSIRGALVLGYEGWLAGYQMNFETSKSRVTQSNFAVGYKTDEFQLHTNVNDGTEFGGSIYQKVNKKLETAVNLAWTAGNSNTRFGIAAKYQVDPDACFSAKVNNSSLIGLGYTQTLKPGIKLTLSALLDGKNVNAGGHKLGLGLEFQA
- cell growth in cells silenced for hVDAC1 [1]: restored
- cell death on over-expression [2]: triggered cell death on day 4 and complete cell death by day 5
- effect of HK-I on channel activity (HK-I): induced the channel to fluctuate between the fully open, sub-conducting state to a stable, long-lived low-conducting state
- maximal conductance ([3]; at 1M NaCl): 4 nS
- voltage dependence of conductance ([3]; planar lipid bilayer, FIG. 4): typical voltage-dependence conductance
- cytochrome c release into the cytosol [4]: released
- sensitivity of expressing cells to induced apoptosis [5]: sensitive
